This assay deals with cathepsin B (Homo sapiens (Human), UniProt P07858). As to the kind of experiment: Inhibition of cathepsin B, fluorogenic substrate Cbz-Phe-Arg-AMC. The following applies: read-out: Cathepsin B IC50; at 30 min.

The term IC50 denotes the concentration needed to halve the response being measured. On to `CCOC(=O)[C@@H]1O[C@H]1C(=O)N(CC(N)=O)NC(=O)C1CCCN1C(C)=O` (stereo partly shown) [LI-1], for which the IC50 worked out at 390 µM.

(Values after patent US9345789B2, “Specific inhibitors and active site probes for legumain” (The Board of Trustees of the Leland Stanford Junior …, priority 2009, dated 2016).)
